The text below walks through data of ChEMBL document CHEMBL1133503 (J Med Chem, 2000).

Assay [1] in a line: Concentration required to reduce cell survival to 10% of controls using V-79 cells in the clonogenic assay, in anaerobic conditions (hypoxic conditions).
The species entered for a further assay is Rattus norvegicus. Kind of assay: Reduction potential (SCE) determined by differential pulse polarography of the sulfoxides […].
Assay [2] is described as follows: Concentration required to reduce cell survival to 10% of controls using V-79 cells in the clonogenic assay, in aerobic conditions.

On to `C[S+]([O-])c1ccc(N(CCCl)CCCl)cc1` (stereo not drawn), for which the figures for the IC90 in assay [1] and in assay [2] were 340 µM and 944 µM, respectively. Further, in the assay filed under Rattus norvegicus, the E is 2.6 -V.

In general, IC90 refers to the concentration at which the effect reaches the 90% level.
